Screening results from PubChem BioAssay.
uPA surface inh: blocks generation of uPA at the cell surface; cell surface uPA generation assay, qHTS; Potency, µM (highest dose often 38.3 µM), usual class: inhibitors; hit rate 0.31% among 330,000; AID 540303; active = well fitted inhibition curve with a large enough effect; inconclusive = small, poorly fitted or top-dose-only effect; inactive = no such curve, though single readings can be large or run the other way; tested in mouse RAW 264.7 cells; note: nearly all actives have a fitted effect of over 55% in size
miR-21 reporter: miR-21 reporter, rising signal; HeLa miR-21 FLuc reporter, luciferase, 48 h; Potency, µM (titrated, usually from 38.3 µM); AID 2288; 340,000 tested, under 10 active; active = well fitted rising curve with a large enough effect; inconclusive = small, poorly fitted or top-dose-only effect; inactive = no such curve, though single readings can be large or run the other way;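 further: miR-21 action dims this reporter so a rising signal means less miR-21 action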
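HeLa miR-21-FLuc reporter line, endogenous miR-21; 2000 cells/well in DMEM/10% FBS; compound titration up to ~40uM final, 48 h, 37 degree Celsius; luciferase detection reagent, 15 min lysis, CCD luminescence.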
TDP1 cell CPT: DT40-hTDP1 cell growth loss with CPT; chicken DT40 Tdp1-/-;hTDP1 cells + 20 nM CPT, ATP luminescence, 48 h; Potency, µM (highest dose often 46.2 µM), most hits filed as inhibitors; AID 686979; hit rate 12% among 420,000; note: nearly all actives have a fitted effect of over 55% in size
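Chicken DT40 Tdp1-/- cells stably complemented with human TDP1 were seeded at 400 cells/well in medium containing 20 nM camptothecin, exposed to pin-transferred compounds, and grown at 37 °C for at least 48 hr. Viability was read as ATP luminescence.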
DT40 TDP1 no CPT: qHTS for Inhibitors of human tyrosyl-DNA phosphodiesterase 1 (TDP1): qHTS in cells in absence of CPT; AID 686978, 2013; Potency, µM (series often up to 46.2 µM), hits mostly inhibitors; DT40 Tdp1-/- hTDP1 cells, no CPT, ATP luminescence, 48 h; hit rate 15% among 420,000; note: nearly all actives have a fitted effect of over 55% in size
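Chicken DT40 Tdp1-/- cells complemented with human TDP1, screened without camptothecin (DMSO vehicle only), 400 cells/well. Compounds pin-transferred, cells incubated at 37 °C for at least 48 hr. Growth read as ATP-dependent luminescence (CellTiter-Glo, 30 min at RT).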
TDP1 block: blocks human tyrosyl-DNA phosphodiesterase 1. AID 485290. Potency, µM (highest dose often 130 µM), hits mostly inhibitors. recombinant TDP1, AlphaScreen DNA substrate cleavage. hit rate 0.28% among 350,000; note: nearly all actives have a fitted effect of over 40% in size
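Signal: AlphaScreen proximity between streptavidin donor and anti-FITC acceptor beads on intact substrate. Reaction: Tdp1 1 nM, substrate 15 nM final, 5 min RT after 15 min compound preincubation.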
A number is an active result; - = inactive; ? = inconclusive; . = no result; ! = not active in a repeat. The list is not random: actives were taken first. Their share in the collection is about 16%. Unless noted, calls come from the whole dose curve; as a rule, active = well fitted curve in the direction sought with a large enough effect; inconclusive = small, poorly fitted or top-dose-only effect, or another doubt; inactive = no such curve, though single readings can be large; an effect the other way counts as inactive or inconclusive.

SMILES	uPA surface inh	miR-21 reporter	TDP1 cell CPT	DT40 TDP1 no CPT	TDP1 block
COc1ccccc1Nc1cc(C)nc2c(C)cccc12	.	.	-	-	.
Cc1cc(Nc2ccccc2Cl)c2ccccc2n1	-	.	23µM	13µM	.
COc1ccc(NC2=C(c3ccccc3)C(=O)c3ccccc32)cc1Cl	.	-	?	?	-
COc1ccc(OC)c(NC2=C(c3ccccc3)C(=O)c3ccccc32)c1	.	-	1.5µM	1µM	-
Cc1cc(NCc2ccccc2)c2ccccc2n1	-	-	21µM	21µM	-
COc1ccc(Cl)cc1Nc1cc(C)nc2ccccc12	?	.	?	15µM	.
Cc1onc(-c2ccccc2Cl)c1NC(=O)NCc1cccs1	-	-	-	-	-
COc1cccc(C2c3c(oc4ccccc4c3=O)C(=O)N2Cc2ccco2)c1 (centres undefined)	-	.	-	-	.
COC(=O)C/C(C)=N/Nc1ccc(S(=O)(=O)N2CCCC2)cc1[N+](=O)[O-]	-	-	-	-	-
COc1cccc(Nc2cc(C)nc3ccccc23)c1	-	-	?	21µM	-
COc1ccc(OC)c(Nc2cc(C)nc3ccccc23)c1	.	-	18µM	18µM	-
COc1ccc(OC)c(Nc2nc(=O)c3cccnc3s2)c1	-	-	21µM	-	-
COc1ccc(OC)c(Nc2ncnc3ccccc23)c1	-	-	-	-	-
COc1ccc(OC)c(Nc2cc(-c3ccccc3)nc(N)n2)c1	-	-	0.65µM	0.73µM	-
O=C(Nc1ccnn1C1CCN(C(=O)c2cccc(C(F)(F)F)c2)CC1)C1CC1	-	-	-	-	-
COc1ccc(NC(=O)CN(C)C(=O)CCc2nc3cc(S(=O)(=O)N4CCOCC4)ccc3n2C)cc1	?	.	-	-	.
Cc1nn(C)c(C(=O)N2CCN(C(=O)c3ccco3)CC2)c1[N+](=O)[O-]	-	-	?	-	-
O=C(Nc1ccccc1)c1ccc(-c2ccc(F)cc2)s1	-	-	-	-	-
COC(=O)c1ccc2nc(C)cc(Nc3cccc(Cl)c3C)c2c1	.	-	12µM	13µM	.
COc1cc(C(=O)Nc2ccc(OCC(=O)N3CCOCC3)cc2C)cc(OC)c1OC	-	-	-	-	-
COc1ccc(NS(=O)(=O)c2ccc(NC(=O)c3ccc(CN4CCOCC4)cc3)cc2)cc1	-	-	18µM	23µM	-
COc1cccc(NC(=O)c2ccc(CN3CCOCC3)cc2)c1	-	-	-	?	-
O=C(Nc1ccc(S(=O)(=O)Nc2ccc(F)cc2)cc1)c1ccc(CN2CCOCC2)cc1	-	?	?	18µM	-
COc1ccc(CN2CCOCCOCCOCC2)cc1	-	-	-	-	-
O=C(Nc1ccc(S(=O)(=O)N2CCCCC2)cc1)c1ccc(CN2CCOCC2)cc1	-	?	18µM	23µM	-
SMILES	uPA surface inh	miR-21 reporter	TDP1 cell CPT	DT40 TDP1 no CPT	TDP1 block
COc1ccc(CN2CCOCCOCCN(Cc3ccc(OC)cc3)CCOCCOCC2)cc1	-	-	?	29µM	-
O=C(Nc1ccc(S(=O)(=O)N2CCCC2)cc1)c1ccc(CN2CCOCC2)cc1	-	-	?	?	-
CCOC(=O)c1c(NC(=O)COC(=O)c2ccc(Cl)nc2)sc(C)c1C	.	.	-	-	.
CCCCCCOc1ccc(OC(=O)c2ccncc2)cc1	-	-	13µM	23µM	-
CCCOc1ccc(C(=O)Nc2ccc(CN3CCOCC3)cc2)cc1	-	-	?	?	-
CCCCOc1ccc(C(=O)Nc2ccc(CN3CCOCC3)cc2)cc1	-	-	13µM	?	.
CCCCOc1ccc(C(=O)Nc2ccncc2)cc1	-	-	5.2µM	2.6µM	-
CCCCCCc1ccc(OC(=O)c2ccncc2)cc1	-	-	-	-	.
O=C1CCC(C(=O)Nc2ccccc2N2CCCC2)=NN1	-	.	-	-	.
CC(C)CC(C(=O)NC1CCCC1)N(Cc1ccc2c(c1)OCO2)C(=O)c1snc(C(N)=O)c1N (centres undefined)	-	-	-	-	-
COC(=O)N1CCc2c(sc(NC(=O)C3COc4ccccc4O3)c2C(N)=O)C1 (centres undefined)	-	.	15µM	16µM	-
CC(=O)N1CCc2c(sc(NC(=O)C3CCCN3S(=O)(=O)c3cccs3)c2C(N)=O)C1 (centres undefined)	-	.	21µM	16µM	-
CC(=O)N1CCc2c(sc(NC(=O)C3CCN(S(=O)(=O)c4cccs4)CC3)c2C(N)=O)C1	-	.	-	-	-
CCOC(=O)c1c(NC(=O)C2COc3ccccc3O2)sc2c1CCN(Cc1ccccc1)C2 (centres undefined)	-	-	23µM	-	-
CCCCn1c(N)c(N(CCOC)C(=O)c2oc3ccc(Br)cc3c2C)c(=O)[nH]c1=O	-	.	-	-	.
CC(C)OC(=O)C[N+](C)(C)CCN1C(=O)C2C(c3ccccc3)C=CC(c3ccccc3)C2C1=O (centres undefined)	-	-	-	-	-
COc1ccc(Cn2ccnc2SCC(=O)Nc2ccc3c(c2)OCCO3)cc1	.	-	?	-	-
Cc1ccc(NS(=O)(=O)c2ccc(C)c(C(=O)NCC(c3ccccc3)N(C)C)c2)cc1 (centres undefined)	-	.	?	?	-
COc1ccccc1C(=O)Nc1ccc2c(c1)nc1n2CCN(C2CCCCC2)C1	?	-	15µM	23µM	-
CC(=O)N1CCN(Cc2nc3cc(NC(=O)c4ccccc4Cl)ccc3n2C)CC1	-	-	-	-	-
Cn1c(CN2CCCCC2)nc2cc(NC(=O)c3ccccc3Cl)ccc21	.	-	16µM	23µM	-
COc1ccccc1C(=O)Nc1ccc2c(c1)nc(CN1CCCCC1)n2C	-	-	?	23µM!	-
CCOC(=O)c1c(Nc2ccc(OC)cc2)nnc(-c2ccccc2)c1-c1ccccc1	.	?	23µM	23µM	.
CCOC(=O)c1c(Oc2ccc(C(C)=O)cc2)nnc(-c2ccccc2)c1-c1ccccc1	.	-	21µM	26µM	-
CCOC(=O)c1c(Nc2ccc(F)cc2)nnc(-c2ccccc2)c1-c1ccccc1	.	-	23µM	18µM	.
SMILES	uPA surface inh	miR-21 reporter	TDP1 cell CPT	DT40 TDP1 no CPT	TDP1 block
Cc1c(NC(=O)C(C)(C)Oc2ccc(Cl)cc2)cccc1-c1nc2ccccc2o1	.	?	?	?	-
Cc1cccc(Cn2c(N3CCCCC3C)nc3c2c(=O)[nH]c(=O)n3C)c1 (centres undefined)	-	-	?	?	-
O=[N+]([O-])c1cccc(/C=N/n2c(C3CCCCC3)n[nH]c2=S)c1	-	-	?	16µM	-
S=c1[nH]nc(C2CCCCC2)n1/N=C/C=C/c1ccccc1	-	-	26µM	?	-
Cc1c(NS(=O)(=O)c2cccc(C(=O)NC(C)c3ccccc3)c2)c(=O)n(-c2ccccc2)n1C (centres undefined)	-	.	-	-	.
O=C(CN1C(=O)c2ccccc2S1(=O)=O)Nc1ccc(S(=O)(=O)N2CCCCC2)cc1	-	-	?	?	-
